Protein sequences, listed by entry. Tags and fused reporters are not part of them. Residues count along the entry.
UniProt P08686, 19-495: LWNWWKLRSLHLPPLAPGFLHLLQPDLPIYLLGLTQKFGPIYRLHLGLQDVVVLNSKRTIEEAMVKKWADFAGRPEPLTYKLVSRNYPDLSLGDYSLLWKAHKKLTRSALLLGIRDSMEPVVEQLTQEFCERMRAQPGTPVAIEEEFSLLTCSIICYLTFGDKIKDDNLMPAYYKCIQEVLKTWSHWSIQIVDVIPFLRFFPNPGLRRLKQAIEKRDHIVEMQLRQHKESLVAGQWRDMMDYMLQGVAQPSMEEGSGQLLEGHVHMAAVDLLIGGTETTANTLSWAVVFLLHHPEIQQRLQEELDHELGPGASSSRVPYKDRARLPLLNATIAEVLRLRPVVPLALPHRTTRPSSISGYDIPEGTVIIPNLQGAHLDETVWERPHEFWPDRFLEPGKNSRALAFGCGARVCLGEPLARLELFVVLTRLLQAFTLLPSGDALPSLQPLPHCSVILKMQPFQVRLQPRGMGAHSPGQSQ

According to US9611270B2, “Inhibitors of CYP17A1” (University of Kansas, priority 2014, dated 2017):

Biological target: human CYP21A2 (Homo sapiens (Human), UniProt P08686)
Test: Analysis of 21-hydroxyprogesterone generation by CYP21A2 using GC/MS
Assay type: biochemical
From the text: Two methods for detecting enzymatic activity were utilized. […] University of Kansas, Lawrence, K S, 2011.
Toxicol. Appl. […] Mol. Endocrinol. 2007, 21, 1958-1968.
The CYP21A2 construct that was used, CYP21A2dH, was also engineered as according to published procedures. See, e.g., Blake, L. C.; Scott, E. E. Cytochromes P450 as therapeutic targets and counter-targets for the prevention of lung cancer and treatment of steroidogenic diseases. University of Kansas, Lawrence, K S, 2012. In this construct, the “d” refers to an 18 amino acid N-terminal deletion. An N-terminal solubility tag was added, in addition to a C-terminal four-histidine tag (“H”). […] “Full-length CYP21A2” will be specifically designated when appropriate. […]
GC/MS was performed on an Agilent Technologies 6850 Network GC System equipped with a 6850 series autosampler and an Agilent Technologies 5975C VL MSD with triple axis detector. […] For quantitative analysis, the characteristic ions of the monitored steroids were determined as their poly-TMS derivatives. […]
The amount of 21-hydroxyprogesterone present was determined by GC-MS analysis using single ion monitoring (M/Z 546.35, ca. 26 min retention time), and analyzed against the estriol internal standard peak (M/Z 504.30, ca. 15 min retention time). Progesterone (M/Z 458.30, ca. 16 min retention time) was detected for quality control among reactions and standards. […]

| SMILES | IC50 [nM] | IC50 (progesterone 21-hydroxylation, 0.5 μM progesterone, purified CYP21A2 with POR 1:4, ± standard error, read-out: CYP21A2 IC50) [nM] |
| --- | --- | --- |
| C[C@]12CC[C@H](O)CC1=C(C#N)C[C@@H]1[C@@H]2CC[C@]2(C)C(c3cccnc3)=CC[C@@H]12 [Compound 38, 6-Cyano-17-(3-pyridyl)-androst-5,16-dien-3β-ol] | 537 ± 52 | – |
| C[C@]12CC[C@H](O)CC1=CC[C@@H]1[C@@H]2CC[C@]2(C)C(c3cccnc3)=CC[C@@H]12 [abiraterone, 17-(3-Pyridyl)-androst-5,16-dien-3β-ol, reference compound] | – | 296 ± 26 |

Read-outs that look alike come from different tables or passages of the source.
